Test results reported in patent US20250221953A1 (The University of Chicago, priority 2022, published 2025).

test system: PD-1^+ Jurkat T cells co-cultured with H596 (PD-L1^+) cells; experiment: 1st screen 1b: rescue of PD-L1/PD-1 dependent exhaustion of PD-1+ Jurkat T cells in co-culture (IL-2 ELISA); format: cell-based, human; conditions: 1st screen 1b (Table 4): rescue of PD-L1/PD-1 dependent exhaustion of PD-1 expressing Jurkat T cells co-cultured with PD-L1-expressing H596 cells

First: Cl.NCCc1ccc(O)c(O)c1 [3-HYDRO[…]/dopamine, 3-HYDRO[…]]
Second: CC/C=C\C/C=C\C/C=C\CCCCCCCC(=O)O [Alpha-linolenic acid (ALA)]
The “Relative changed percentage (%)” value of the first is lower: −73.99% for the first, 52.43% for the second.

Compared with `O=C([O-])[O-].[Ca+2]` [Calcium Carbonate], `C[N+](C)(C)CCO.[Cl-]` [Choline Chloride] is higher in “Relative changed percentage (%)” value: −5.353% for the first, 15.7% for the second.

Going from `O=S(=O)([O-])[O-].[Cu+2]` [Copper sulfate] to `O=P([O-])([O-])O.[K+].[K+]` [Dipotassium Phosphate], the “Relative changed percentage (%)” value rises from −19.55% to 17.73%.

Going from `CCCCC/C=C\C/C=C\C/C=C\CCCCC(=O)O` [Gamma linolenic acid] to `NCC(=O)O` [Glycine], the “Relative changed percentage (%)” value rises from −94.21% to 43.99%.

Compared with `NCCc1c[nH]cn1` [HISTAMINE FREE BASE CRYSTALLINE, HISTAMINE FREE BASE], `N[C@@H](CCC(=O)N[C@@H](CS)C(=O)NCC(=O)O)C(=O)O` [L-GLUTATHIONE REDUCED] is lower in “Relative changed percentage (%)” value: 13.58% for the first, −36.35% for the second.

Going from `CSCC[C@H](N)C(=O)O` [L-Methionine] to `O=C(O)[C@@H]1CCCN1` [L-Proline], the “Relative changed percentage (%)” value falls from 62.89% to 0.3268%.

First: N[C@@H](CCC(=O)N[C@@H](CS)C(=O)NCC(=O)O)C(=O)O [L-glutathione]
Second: O=S(=O)([O-])[O-].[Mn+2] [Manganese sulfate]
The “Relative changed percentage (%)” value of the first is higher: −4.051% for the first, −29.86% for the second.

Going from `O=P([O-])(O)O.[K+]` [Monopotassium Phosphate] to `Oc1ccccc1` [PHENOL], the “Relative changed percentage (%)” value falls from 26.14% to −71.08%.

First: C/C=C/C=C/C(=O)[O-].[K+] [Potassium sorbate]
Second: O=C([O-])O.[Na+] [SODIUM BICARBONATE]
The “Relative changed percentage (%)” value of the first is lower: −28.7% for the first, 9.45% for the second.

Compared with `O=S(=O)([O-])[O-].[Na+].[Na+]` [SODIUM SULFATE], `O=C(O)CCC(=O)O` [SUCCINIC ACID] is lower in “Relative changed percentage (%)” value: 12.89% for the first, −65.83% for the second.

First: (−)-EPINEPHRINE
Second: MANGANESE SULFATE MONOHYDRATE [MANGANESE SULFATE MONOHYDRATE,]
The “Relative changed percentage (%)” value of the first is higher: −51.6% for the first, −79.46% for the second.

First: Silicic acid
Second: Tricalcium phosphate hydrate
The “Relative changed percentage (%)” value of the first is lower: −50.08% for the first, 17.36% for the second.

Compared with ZINC SULFATE HEPTAHYDRATE, androsterone [AN[…],/androsterone] is lower in “Relative changed percentage (%)” value: 12.37% for the first, −32.05% for the second.

test system: B16F10 cells co-cultured with Pmel-1 cells; experiment: not given; conditions: 20 μM TVA, 24 hours

`CCCCCC/C=C/CCCCCCCCCC(=O)O` [TVA, trans-vaccenic acid] was tested, and the “cytotoxicity of B16F10 cells induced by co-cultured pmel-1-specific T cells” value was “enhances cytotoxicity”.
